# OPERA 2.9 data: vapor pressure values

Source: data files of OPERA 2.9 (Mansouri et al.), github.com/kmansouri/OPERA.

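These are experimental values that the OPERA curators gathered from public databases to train and test their QSAR models. A listed value is a point estimate from one report or more. How each value was measured is not recorded, so precision varies. A value may pool stereoisomers or salt forms, and the file does not say which form was measured. Some upstream entries may be estimates or bounds without being marked so.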

Vapor pressures (log10 mmHg) refer to near room temperature, 15 to 30 °C; higher is more volatile. "via" names the databases from which the curators took the value.

The entry for O=C1C(Cl)=C(Cl)C(=O)C(Cl)=C1Cl lists vapor pressure -5.209 (log10 mmHg) (via OCHEM, PubChem).
The entry for CCC(C)(C)OOC(C)(CC)OOC(C)(C)CC lists vapor pressure 1.114 (log10 mmHg) (via eChemPortal).
The entry for N#CC(Br)c1ccccc1 (configuration not stated) lists vapor pressure -1.921 (log10 mmHg) (via PubChem).
The entry for CNC(=O)Oc1ccc(N(C)C)c(C)c1 lists vapor pressure -4.763 (log10 mmHg) (via OCHEM, PubChem).
The entry for CCCCOP(=O)(OCCCC)Oc1ccccc1 lists vapor pressure -2.155 (log10 mmHg) (via OFMPub).
The entry for CCCCOCCOP(=O)(OCCOCCCC)OCCOCCCC lists vapor pressure -6.844 (log10 mmHg) (via eChemPortal).
The entry for CC(C)CCC(C)Nc1ccc(NC(C)CCC(C)C)cc1 (configuration not stated) lists vapor pressure -5.949 (log10 mmHg) (via OFMPub, eChemPortal).
The entry for C=CC(=O)NC(C)(C)CC(C)=O lists vapor pressure -3.068 (log10 mmHg) (via eChemPortal).
The entry for Clc1ccc(-c2ccccc2)cc1Cl lists vapor pressure -2.255 (log10 mmHg) (via OCHEM).
The entry for ClCCCCCCCCCCCl lists vapor pressure -1.837 (log10 mmHg) (via eChemPortal).
The entry for COc1ccc(O)c(C(C)(C)C)c1 lists vapor pressure -2.606 (log10 mmHg) (via eChemPortal).
The entry for Clc1ccc(-c2c(Cl)ccc(Cl)c2Cl)cc1 lists vapor pressure -3.525 (log10 mmHg) (via OCHEM).
The entry for CCOc1ccc(CC(N)CNCCN)cc1.Cl.Cl (configuration not stated) lists vapor pressure -8.642 (log10 mmHg) (via eChemPortal).
The entry for CCc1cccc(C)c1N lists vapor pressure -1.274 (log10 mmHg) (via OFMPub).
The entry for O=c1[nH]c2cc(Cl)ccc2n1C1CCNCC1 lists vapor pressure -9.837 (log10 mmHg) (via eChemPortal).
The entry for O=C(O)c1cc(Oc2ccc(C(F)(F)F)cc2Cl)ccc1[N+](=O)[O-] lists vapor pressure -6.001 (log10 mmHg) (via OCHEM).
The entry for C/C=C(\C)C(=O)O[C@H]1C[C@@H](OC(C)=O)[C@@]2(C(=O)OC)CO[C@H]3[C@@H](O)[C@@](C)([C@]45O[C@@]4(C)[C@H]4C[C@@H]5O[C@@H]5OC=C[C@@]54O)[C@H]4[C@]1(CO[C@]4(O)C(=O)OC)[C@@H]32 lists vapor pressure -10.57 (log10 mmHg) (via OCHEM, PubChem).
The entry for CSCCC(O)C#N (configuration not stated) lists vapor pressure -3.25 (log10 mmHg) (via eChemPortal).
The entry for Clc1cc(Cl)cc(-c2cc(Cl)c(Cl)c(Cl)c2Cl)c1 lists vapor pressure -5.085 (log10 mmHg) (via OCHEM).
The entry for CCCCOC(N)=O lists vapor pressure 0.345 (log10 mmHg) (via eChemPortal).
The entry for COc1cccc(C(=O)NN(C(=O)c2cc(C)cc(C)c2)C(C)(C)C)c1C lists vapor pressure -7.955 (log10 mmHg) (via OCHEM).
The entry for CC(=O)O[C@H]1CC[C@H]2[C@@H]3CC[C@H]4CC(=O)C[C@H](C)[C@]4(C)[C@H]3CC[C@]12C lists vapor pressure -8.894 (log10 mmHg) (via eChemPortal).
The entry for CCNc1nc(O)nc(NC(C)C)n1 lists vapor pressure -5.072 (log10 mmHg) (via OCHEM).
The entry for C[n+]1ccc(-c2cc[n+](C)cc2)cc1.[Cl-].[Cl-] lists vapor pressure -7.062 (log10 mmHg) (via PubChem, eChemPortal).
The entry for CCCCN(CC)N=O lists vapor pressure -1.06 (log10 mmHg) (via PubChem).
The entry for CCOC(=O)c1ccccc1S(=O)(=O)NC(=O)Nc1nc(Cl)cc(OC)n1 lists vapor pressure -11.4 (log10 mmHg) (via OCHEM).
The entry for CCCCSP(SCCCC)SCCCC lists vapor pressure -4.699 (log10 mmHg) (via OCHEM).
The entry for Clc1ccc(-c2c(Cl)c(Cl)c(Cl)c(Cl)c2Cl)c(Cl)c1 lists vapor pressure -5.315 (log10 mmHg) (via OCHEM).
The entry for Oc1cc(Cl)c(Cl)cc1O lists vapor pressure -2.514 (log10 mmHg) (via OCHEM).
The entry for Sc1ccccc1Cl lists vapor pressure -0.216 (log10 mmHg) (via eChemPortal).
The entry for C=CC(C)=O lists vapor pressure 1.934 (log10 mmHg) (via PubChem).
The entry for Brc1cc(Br)c(Oc2cc(Br)c(Br)cc2Br)cc1Br lists vapor pressure -7.188 (log10 mmHg) (via OCHEM).
The entry for CC(=O)c1cc(C(C)(C)C)cc2c1CCC2(C)C lists vapor pressure -3.627 (log10 mmHg) (via PubChem, eChemPortal).
The entry for CCS(=O)c1c(C#N)nn(-c2c(Cl)cc(C(F)(F)F)cc2Cl)c1N (configuration not stated) lists vapor pressure -9.166 (log10 mmHg) (via eChemPortal).
The entry for CSC(C)(C)C=NO lists vapor pressure -1 (log10 mmHg) (via OFMPub, PubChem).
The entry for Cc1cc(C)nc(NC(=O)NS(=O)(=O)c2ccccc2C(=O)OC2COC2)n1 lists vapor pressure -7.824 (log10 mmHg) (via OCHEM).
The entry for C#CC1(O)CCC2C3C(C)CC4=CC(=O)CCC4C3CCC21C (configuration not stated) lists vapor pressure -9.186 (log10 mmHg) (via eChemPortal).
The entry for CO[Si](C)(CN=C=O)OC lists vapor pressure -0.374 (log10 mmHg) (via eChemPortal).
The entry for CCCCC(CC)CO[N+](=O)[O-] (configuration not stated) lists vapor pressure -0.694 (log10 mmHg) (via eChemPortal).
The entry for CCSCCOP(=S)(OC)OC lists vapor pressure -3.727 (log10 mmHg) (via PubChem).
The entry for C1CCC(NC2CCCCC2)CC1.CC(C)(O)c1ccccc1CCC(SCC1(CC(=O)O)CC1)c1cccc(/C=C/c2ccc3ccc(Cl)cc3n2)c1 (stereo partly drawn) lists vapor pressure -7.326 (log10 mmHg) (via eChemPortal).
The entry for CC(c1ccc(C(F)(F)F)nc1)S(C)(=O)=NC#N (configuration not stated) lists vapor pressure -7.721 (log10 mmHg) (via PubChem).
The entry for C[N+](C)(C)C.[Cl-] lists vapor pressure -9.966 (log10 mmHg) (via eChemPortal).
The entry for O=S(=O)(F)C(F)(F)C(F)(F)C(F)(F)C(F)(F)F lists vapor pressure 2.063 (log10 mmHg) (via eChemPortal).
The entry for CC(C)(C)C(=O)Cl lists vapor pressure 1.462 (log10 mmHg) (via eChemPortal).
The entry for Cc1cc(C)c(N)c(C)c1N lists vapor pressure -4.056 (log10 mmHg) (via eChemPortal).
The entry for CCc1cnc(C2=NC(C)(C(C)C)C(=O)N2)c(C(=O)O)c1 (configuration not stated) lists vapor pressure -7.001 (log10 mmHg) (via OCHEM).
The entry for O=P([O-])([O-])c1ccccc1.[Zn+2] lists vapor pressure -8.727 (log10 mmHg) (via eChemPortal).
The entry for C=COC(=O)CCl lists vapor pressure 0.719 (log10 mmHg) (via eChemPortal).
The entry for CCOc1ccc(C(C)(C)COCc2cccc(Oc3ccccc3)c2)cc1 lists vapor pressure -8.215 (log10 mmHg) (via OCHEM).
The entry for C(CCOCC1CO1)COCC1CO1 (configuration not stated) lists vapor pressure -2.732 (log10 mmHg) (via eChemPortal).

Excerpt, the opening 5 entries:

The entry for O=C1C(Cl)=C(Cl)C(=O)C(Cl)=C1Cl lists vapor pressure -5.209 (log10 mmHg) (via OCHEM, PubChem).
The entry for CCC(C)(C)OOC(C)(CC)OOC(C)(C)CC lists vapor pressure 1.114 (log10 mmHg) (via eChemPortal).
The entry for N#CC(Br)c1ccccc1 (configuration not stated) lists vapor pressure -1.921 (log10 mmHg) (via PubChem).
The entry for CNC(=O)Oc1ccc(N(C)C)c(C)c1 lists vapor pressure -4.763 (log10 mmHg) (via OCHEM, PubChem).
The entry for CCCCOP(=O)(OCCCC)Oc1ccccc1 lists vapor pressure -2.155 (log10 mmHg) (via OFMPub).